A short description of this data set: patients with anti-drug antibodies; higher = more immunogenic.

One protein from the FLAb antibody collection can be followed below.

B1: unnamed (protein)
chain 1: QAQVVESGGGVVQSGRSLRLSCAASGFAFSSYGMHWVRQAPGKGLEWVAVIWYDGSNKYYADSVRGRFTISRDNSENTLYLQMNSLRAEDTAVYYCARDHYGSGVHHYFYYGLDVWGQGTTVTVSS
chain 2: [about 100 residues not shown]
Turning to B1, the “patients with anti-drug antibodies” value amounted to 0%.
